The target in the assay is T1, recombinant human EP2 receptor (Homo sapiens, UniProt P43116).
T1 construct: cDNAs representing the complete open reading frames of the human EP2 and EP4 receptors; expressed in transfected cells
Nature of the assay: Scatchard analysis of specific [3H]PGE2 binding in 293-S line overexpressing EP2. To be noted: read-out: Kd for PGE2 (EP2); 293-S/EP2 line, approximately 338,400 receptors per cell.

The chains behind the UniProt entries cited, without tags or fusion partners. Where a name states a change or a piece, a line headed by the entry shows the natural chain unless it says otherwise.
UniProt P43116: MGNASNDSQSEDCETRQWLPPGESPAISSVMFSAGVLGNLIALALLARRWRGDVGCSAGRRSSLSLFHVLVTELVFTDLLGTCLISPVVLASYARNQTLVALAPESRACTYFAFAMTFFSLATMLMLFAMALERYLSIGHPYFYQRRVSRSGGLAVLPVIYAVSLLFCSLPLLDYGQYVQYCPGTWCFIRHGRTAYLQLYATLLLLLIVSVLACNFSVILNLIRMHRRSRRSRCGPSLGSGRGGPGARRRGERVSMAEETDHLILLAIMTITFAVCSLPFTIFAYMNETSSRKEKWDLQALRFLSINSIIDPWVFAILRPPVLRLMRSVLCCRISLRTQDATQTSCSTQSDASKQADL

Regarding `CCCCC[C@H](O)/C=C/[C@H]1[C@H](O)CC(=O)[C@@H]1C/C=C\CCCC(=O)O` [PGE2, prostaglandin E2], the Kd (commonly the concentration at which binding is half-saturated) was 12 nM.

Values taken from patent US20110046385A1, “Polymorphs Of Prostaglandin Agonists And Methods For Making The Same” (priority 2007, published 2011).
